Laboratory results published in patent publication US4363812A, “3-(Tetrazol-5-yl), 4-methyl-8-alkoxy coumarins and anti-allergic compositions thereof” (priority 1978, dated 1982).

Key:
[1] = in vivo
[2] = safety margin (LD50 /MED); conditions: in vivo, po

| SMILES | Relative value of safety margin [1] | selectivity ratio [2] |
| --- | --- | --- |
| Cc1c(-c2nnn[nH]2)c(=O)oc2c(Cl)cccc12 [Compound I, reference compound] | 1.0 | 167 |
| CCCCCOc1cccc2cc(-c3nnn[nH]3)c(=O)oc12 [Example 1, 8-n-Pentyloxy-3-(1H-tetrazol-5-yl)coumarin] | 5. | 853 |
| CCOc1cccc2cc(-c3nnn[nH]3)c(=O)oc12 [Example 4, 8-Ethoxy-3-(1H-tetrazol-5-yl)coumarin] | 2.4 | 400 |
| Cc1ccc2oc(=O)c(-c3nnn[nH]3)c(C)c2c1 [J, reference compound] | 0.3 | 21 |
